The entries are a selection whose mix differs from that of the whole data set. Activity calls are given as the source filed them. Calls come from the whole dose curve; as a rule, active = well fitted activation curve with a large enough effect; inconclusive = small, poorly fitted or top-dose-only effect; inactive = flat fitted curve, though single readings scatter; cell line not stated here. Entries that show only a call come without a potency.
Assay: A Quantitative High throughput Screen to Identify Chemical Modulators of PINK1 Expression; note: nearly all actives have a fitted effect of over 65% in size
Settings: PINK1 immunofluorescence, high-content cytometry, 24 h; series mostly up to 76.6 µM
Potency is the fitted concentration of half-maximal effect.

| Compound | Potency |
| --- | --- |
| [N-]=[N+]=NC1CCCCC1NC(=O)c1cc([N+](=O)[O-])cc([N+](=O)[O-])c1 (centres undefined) | inactive |
| Cc1ccc(OP(=O)(Nc2ccc([N+](=O)[O-])cn2)Oc2ccc(C)cc2)cc1 | inactive |
| CC(C)(C)c1ccc(OP(C)(=O)Nc2ccc(SC(F)(F)F)cc2)cc1 (centres undefined) | inactive |
| ClCCN(CCCl)c1ccc(CC2C=CC=C2)cc1 | inactive |
| Cc1cccc(C)c1OP(C)(N)=O (centres undefined) | inactive |
| O=[N+]([O-])c1ccc2c(c1)C=Nc1ccccc1O2 | inactive |
| Cc1ccc2nc3c(c(C)c2c1)CC(C(Cl)Cl)S3 (centres undefined) | inactive |
| O=[N+]([O-])c1cc([N+](=O)[O-])c(Nc2cccnc2)c([N+](=O)[O-])c1 | active: 39.8 µM |
| C[As](=O)(O)c1cccc(C(=O)O)c1 | inactive |
| O=[As](O)(c1ccc(O)cc1)c1ccccc1O | inactive |
| O=[N+]([O-])c1ccc(-c2cc([N+](=O)[O-])c(O)c([N+](=O)[O-])c2)cc1 | inactive |
| COc1cc(C(=O)NCC2(N3CCOCC3)CCCCC2)ccc1OCC(C)C | inactive |
| COc1ccccc1OP(C)(=O)Nc1cc(Cl)ccc1C (centres undefined) | inactive |
| CC(C)NC(=O)NP(=O)(Oc1ccccc1)Oc1ccccc1 | inactive |
| O=C(OC1CN2CCC1CC2)c1cccc2[nH]cnc12 (centres undefined) | inactive |
| CCN(CC)C(=S)SC(NC=O)C(Cl)(Cl)Cl (centres undefined) | inactive |
| COc1ccc(OP(C)(=O)Nc2cccc(F)c2)cc1 (centres undefined) | inactive |

| Compound | Potency |
| --- | --- |
| O=[N+]([O-])c1cc([N+](=O)[O-])c(-c2ccn[nH]2)s1 | inactive |
| Cc1cc(C)cc(OP(C)(N)=O)c1 (centres undefined) | inactive |
| CCOC(=O)c1ccc(NP(C)(=O)Oc2ccccc2)cc1 (centres undefined) | inactive |
| ClCCSc1nnc(-c2cccnc2)o1 | inactive |
| O=Cc1ccc(NCCCl)cc1 | inactive |
| COc1ccccc1OP(C)(=O)Nc1ccc(C)cc1 (centres undefined) | inactive |
| COC(=O)C1(C)COP(=O)(N2CCCCCC2)OC1 (centres undefined) | inactive |
| CC(C)c1ccc(OP(=O)(Nc2ccccn2)Oc2ccccc2F)cc1 (centres undefined) | inactive |
| Cc1ccc(NP(C)(=O)Oc2ccccc2)c(C)c1 (centres undefined) | inactive |
| COc1ccc(OP(C)(=O)Nc2ccccc2Br)cc1 (centres undefined) | inactive |
| Cc1cc(SC(NC(=O)c2ccc(F)cc2)C(Cl)(Cl)Cl)ncn1 (centres undefined) | inactive |
| CCOP(=O)(Nc1ccccc1)OCC | inactive |
| COc1ccccc1OP(C)(=O)Nc1ccc(C)c(C)c1 (centres undefined) | inactive |
| Cc1ccc(NP(=O)(Oc2ccccc2F)Oc2ccccc2F)nc1 | inactive |
| CN(C(=O)Cc1ccc(Cl)c(Cl)c1)[C@H]1CCCC[C@@H]1N1CCCC1 | inactive |
| Cc1cc(C)cc(OP(C)(=O)Nc2cccc(C(F)(F)F)c2)c1 (centres undefined) | inactive |
| CN(C)P(=O)(N(C)C)n1c(Nc2ccccc2)nnc1-c1ccccc1 | inactive |
